Target: isolated polymerase domain (I1780-V2590) of DNA polymerase theta (Polθ) (Homo sapiens (Human), UniProt O75417)

The chains behind the UniProt entries cited, without tags or fusion partners. Residues count along the entry.
UniProt O75417, 1780-2590: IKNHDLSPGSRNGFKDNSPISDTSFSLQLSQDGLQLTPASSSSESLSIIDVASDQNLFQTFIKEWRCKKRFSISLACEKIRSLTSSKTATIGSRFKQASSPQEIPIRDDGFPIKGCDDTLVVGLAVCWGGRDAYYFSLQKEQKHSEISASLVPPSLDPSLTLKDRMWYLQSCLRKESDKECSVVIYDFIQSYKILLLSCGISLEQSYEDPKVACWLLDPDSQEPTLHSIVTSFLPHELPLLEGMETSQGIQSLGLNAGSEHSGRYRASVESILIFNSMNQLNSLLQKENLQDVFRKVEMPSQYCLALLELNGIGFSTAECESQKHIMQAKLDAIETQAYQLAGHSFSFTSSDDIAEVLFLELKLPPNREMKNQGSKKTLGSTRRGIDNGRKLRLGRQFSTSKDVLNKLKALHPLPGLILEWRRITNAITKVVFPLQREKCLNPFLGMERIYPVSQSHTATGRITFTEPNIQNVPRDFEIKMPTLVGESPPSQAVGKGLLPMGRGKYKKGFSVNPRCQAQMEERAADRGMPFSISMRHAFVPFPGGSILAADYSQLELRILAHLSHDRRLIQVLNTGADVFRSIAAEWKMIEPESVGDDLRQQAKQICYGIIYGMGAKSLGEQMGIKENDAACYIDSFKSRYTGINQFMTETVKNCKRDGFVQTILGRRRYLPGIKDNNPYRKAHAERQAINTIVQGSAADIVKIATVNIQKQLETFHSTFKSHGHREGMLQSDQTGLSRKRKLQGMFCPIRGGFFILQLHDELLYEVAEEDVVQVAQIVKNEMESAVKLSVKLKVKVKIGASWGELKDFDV

| IC50 | SMILES |
| --- | --- |
| 3.98 nM | COc1ccc(Cl)cc1Cn1c(-c2cccc(O[C@H]3C[C@@H](C(=O)O)C3)c2Cl)nc2c(OC3(C)CC3)ncnc21 [Example 52, (1s,3s)-3-(2-chloro-3-(9-(5-chloro-2-methoxybenzyl)-6-(1-methylcyclopropoxy)-9H-purin-8-yl)phenoxy)cyclobutane-1-carboxylic acid] |
| 31.6 nM | CC1(Oc2ncnc3c2nc(-c2ccc(C(=O)N4CCNCC4)cc2Cl)n3Cc2ccccc2)CC1 [Example N3, (4-(9-benzyl-6-(1-methylcyclopropoxy)-9H-purin-8-yl)-3-chlorophenyl)(piperazin-1-yl)methanone] |
| 6.31 nM | CC(CCOc1ccc(-c2nc3c(OC4(C)CC4)ncnc3n2Cc2cccc(Cl)c2F)c(Cl)c1)C(=O)O (single isomer, unassigned) [Example T271, 4-(3-chloro-4-(9-(3-chloro-2-fluorobenzyl)-6-(1-methylcyclopropoxy)-9H-purin-8-yl)phenoxy)-2-methylbutanoic acid] |
| 10 nM | Cc1cc(OC2CNC2)ncc1-c1nc2c(OC3(C)CC3)ncnc2n1Cc1ccccc1 [Example G17, 8-{6-[(azetidin-3-yl)oxy]-4-methylpyridin-3-yl}-9-benzyl-6-[(1-methylcyclopropyl)oxy]-9H-purine] |
| 6.31 nM | CN(C)CCCOc1ccc(-c2nc3c(OC4(C)CC4)ncnc3n2Cc2cc(Cl)ccn2)c(Cl)c1 [Example 17, 3-(3-Chloro-4-(9-((4-chloropyridin-2-yl)methyl)-6-(1-methylcyclopropoxy)-9H-purin-8-yl)phenoxy)-N,N-dimethylpropan-1-amine] |
| 2.51 nM | CC1(Oc2ncnc3c2nc(-c2cccc(OC4CCNCC4)c2Cl)n3Cc2ccccc2)CC1 [Example D11, 9-benzyl-8-(2-chloro-3-(piperidin-4-yloxy)phenyl)-6-(1-methylcyclopropoxy)-9H-purine] |
| 2.51 nM | Cc1cc(OCCCN2CCNCC2)ncc1-c1nc2c(OC3(C)CC3)ncnc2n1Cc1ccccc1 [Example G1, 9-benzyl-8-(4-methyl-6-(3-(piperazin-1-yl)propoxy)pyridin-3-yl)-6-(1-methylcyclopropoxy)-9H-purine] |
| 2 nM | C[C@H]1CNCCN1CCOc1ccc(-c2nc3c(OC4(C)CC4)ncnc3n2Cc2ccccc2)c(Cl)c1 [Example R10, (S)-9-benzyl-8-(2-chloro-4-(2-(2-methylpiperazin-1-yl)ethoxy)phenyl)-6-(1-methylcyclopropoxy)-9H-purine] |
| 6.31 nM | CC1(Oc2ncnc3c2nc(-c2ccc(N4CCNC(=O)C4)cc2Cl)n3Cc2ccccc2)CC1 [Example M3, 4-(4-(9-benzyl-6-(1-methylcyclopropoxy)-9H-purin-8-yl)-3-chlorophenyl)piperazin-2-one] |
| 2.51 nM | CC1(Oc2ncnc3c2nc(-c2ccc(OCCN4CC[C@@H](O)C4)cc2Cl)n3Cc2ccccc2)CC1 [Example H13, (R)-1-(2-(4-(9-benzyl-6-(1-methylcyclopropoxy)-9H-purin-8-yl)-3-chlorophenoxy)ethyl)pyrrolidin-3-ol] |
| 3.98 nM | Cc1ccnc(Cn2c(-c3ccc(OCCN4CC(O)C4)cc3Cl)nc3c(OC4(C)CC4)ncnc32)c1 [Example 26, 1-(2-(3-Chloro-4-(6-(1-methylcyclopropoxy)-9-((4-methylpyridin-2-yl)methyl)-9H-purin-8-yl)phenoxy)ethyl)azetidin-3-ol] |
| 3.98 nM | CC1(Oc2ncnc3c2nc(-c2ccc(OCCCN4CCNCC4=O)cc2Cl)n3Cc2ccccc2)CC1 [Example S1, 1-(3-(4-(9-benzyl-6-(1-methylcyclopropoxy)-9H-purin-8-yl)-3-chlorophenoxy)propyl)piperazin-2-one] |
| 10 nM | Cc1ccnc(Cn2c(-c3ccc(OCC(=O)N4C[C@@H]5C[C@H]4CO5)cc3Cl)nc3c(OC4(C)CC4)ncnc32)c1 [Example T549] |
| 2 nM | CC1(Oc2cccc3c2nc(-c2ccc(OCCN4CCNCC4)cc2Cl)n3Cc2cc(Cl)ccn2)CC1 [Example 15, 2-(2-chloro-4-(2-(piperazin-1-yl)ethoxy)phenyl)-1-((4-chloropyridin-2-yl)methyl)-4-(1-methylcyclopropoxy)-1H-benzo[d]imidazole] |
| 2.51 nM | CC1(Oc2ncnc3c2nc(-c2ccc(OCCN4CC5(CNC(=O)C5)C4)cc2Cl)n3Cc2ccccc2)CC1 [Example R8, 2-(2-(4-(9-benzyl-6-(1-methylcyclopropoxy)-9H-purin-8-yl)-3-chlorophenoxy)ethyl)-2,6-diazaspiro[3.4]octan-7-one] |
| 10 nM | Cc1ccnc(Cn2c(-c3ccc(OCC(=O)N(C)[C@H]4C[C@@H](O)C4)cc3Cl)nc3c(OC4(C)CC4)ncnc32)c1 [Example T582, 2-(3-chloro-4-(6-(1-methylcyclopropoxy)-9-((4-methylpyridin-2-yl)methyl)-9H-purin-8-yl)phenoxy)-N-((1s,3s)-3-hydroxycyclobutyl)-N-methylacetamide] |
| 3.98 nM | CC1(Oc2ncnc3c2nc(-c2ccc(OCCN4CCNCC4)cc2Cl)n3Cc2cccc(C#N)n2)CC1 [Example K9, 6-((8-(2-chloro-4-(2-(piperazin-1-yl)ethoxy)phenyl)-6-(1-methylcyclopropoxy)-9H-purin-9-yl)methyl)picolinonitrile] |
| 3.98 nM | CC1(Oc2ncnc3c2nc(-c2ccc(N4CCC(N)CC4)cc2Cl)n3Cc2ccccc2)CC1 [Example M2, 1-(4-(9-benzyl-6-(1-methylcyclopropoxy)-9H-purin-8-yl)-3-chlorophenyl)piperidin-4-amine] |
| 5.01 nM | Cc1ccnc(Cn2c(-c3ccc(OC4CN(C(=O)CO)C4)cc3Cl)nc3c(OC4(C)CC4)ncnc32)c1 [Example 39, 1-(3-(3-Chloro-4-(6-(1-methylcyclopropoxy)-9-((4-methylpyridin-2-yl)methyl)-9H-purin-8-yl)phenoxy)azetidin-1-yl)-2-hydroxyethan-1-one] |
